Like-named read-outs stand apart in the source and are kept apart here.

A short description of series [1]: Aquation in D2O by 1H NMR. Particulars: 37° C.
The conditions of series [2]: pH 7.4.
For series [3] the following is noted: all animals that survived past the first day.

Take pyriplatin: in series [1], the “equilibrium constant for aquation” value is recorded as “approximately 0.05”.

Consider “cis-[Pt(NH3)2(phenanthridine)Cl]NO3 [phenanthriplatin]”, for which, in series [2], the “half-life, reaction with 5′-dGMP” value is given as 3.2 h. For the same substance, the “equilibrium constant for aquation” value in series [1] is “approximately 0.05”. Further, the mortality result is “no mortality was observed” with Albino ICR mice (Phase 2, 4, 2.9, 2.1 and 1.5 mg/kg IV, three animals dosed each); “One animal died within a few minutes after dosing” with Albino ICR mice (Phase 2, Group 6, 5.6 mg/kg IV, three animals dosed); “Two animals died within a few minutes after dosing” with Albino ICR mice (Phase 2, Group 7, 7.8 mg/kg IV, three animals dosed); “one animal died immediately after dosing” with Albino ICR mice (Phase 2, Group 8, 10.8 mg/kg IV). In addition, the “maximum tolerated dose (MTD)” value with Albino ICR mice (intravenous (tail vein), Albino ICR female mice) is reported as “approximately 4 mg/kg”. Further, in series [3], the “change in body weight, in words” value is reported as “no significant change in body weight”.

The record behind these values is US20130029959A1, “COMPOSITIONS AND METHODS FOR THE TREATMENT OF CANCER” (Massachusetts Institute of Technology, priority 2011, published 2013).
